Assay [1] relates to EGFR+ MDA-MB 468 cells. The assay is described as follows: Fluorescence microscopy of labeled fixed cells. The format is cell-based. The following applies: 60 nM, 1 hour, fixed MDA-MB 468 cells. The procedure: (§1) FIGS. 8A-8D show functional binding properties of the SrtA-generated ADC. […] Labeled cells were imaged at 40× using bright field illumination and fluorescence. […] Cell labeling was measured at 544/585 nm. […] After adding the streptavidin-HRP and TMB substrate, FcRn binding was measured by absorbance at 450 nm. […] The same protocol for FcγRI binding was conducted, but instead, biotinylated FcγRI was applied to the coated plate at neutral pH.
Fluorescence Microscopy. MDA-MB 468 cells were passaged in Dulbecco's Modified Eagle Medium (DMEM) supplemented by 10% fetal bovine serum (FBS) and 5% penicillin-streptomycin. A total of 125,000 cells were seeded per well on a 48-well tissue culture plate (Falcon). After 24 hours, cells were fixed for 15 min using neutral buffered formalin solution (Sigma-Aldrich) and then washed three times with PBST (1×PBS, 0.05% Tween 20). Fixed cells were then resuspended in PBST and blocked with 10% Normal Goat Serum (Life Technologies) for 15 min. After blocking, wash steps were repeated. […] After, cells were washed again to remove excess Cetuximab-Ahx-vcTAMRA or Cetuximab and then resuspended in PBST. Imaging was performed on an Olympus IX81 and then analyzed on ImageJ.

In assay [2] the test system is EGFR+ MDA-MB 468 cells. In words: Fixed cell-surface ligand binding assay. The following applies: PE-goat anti-human secondary antibody, 544/585 nm. The method, then: as §1
Fixed Cell-Surface Ligand Binding Assay. MDA-MB 468 cells were seeded in black, transparent-bottom plates (Corning) at a density of 10,000 cells per well. Once 70-80% confluency was reached, cells were fixed with neutral buffered formalin solution (Sigma-Aldrich) for 15 min and then washed three times with PBST (1×PBS, 0.05% Tween 20). Cells were blocked with 10% Normal Goat Serum (Life Technologies) for 15 min and washed three times again with PBST. […] Triplicate negative control wells with only Blocking Buffer were also included. The same triplicate dilutions for Cetuximab alone were also added to adjacent wells in parallel. After binding for 1 hour covered while shaking, wash steps were repeated. […] Fluorescent signal was measured at 544/585 nm on a Tecan M200 Infinite plate reader. […] Normalized data was analyzed using GraphPad Prism to calculate the binding affinity constants (KD).

Assay [3] deals with Human CD64/Fc-gamma Receptor 1 (FcγRI) (Homo sapiens, UniProt P12314). In words: Fc-gamma receptor I binding assay. The following applies: coated plate, biotinylated FcγRI at physiological pH, absorbance 450 nm. The procedure:
as §1
Fc-gamma Receptor/Binding Assay. A transparent 96-well half-area plate (Corning) was coated using the same protocol described for the FcRn binding assay. The next day, the plate was washed four times with Wash Buffer 1 (1×TBS, 0.05% Tween 20, pH 7.4) and then blocked with Blocking Buffer (2% BSA in Wash Buffer 1, pH 7.4) at 4° C. for 1.5 hours. Wash steps were repeated. Biotinylated Human CD64/Fc-gamma Receptor 1 (FcγRI) diluted in Dilution Buffer (0.5% BSA in Wash Buffer 1) was added to Cetuximab-Ahx-vcMMAE- and Cetuximab-coated wells in duplicate at a starting concentration of 100 ng/mL, which was serially diluted two-fold to 0.78 ng/mL. Duplicate negative control wells with Dilution Buffer only were also included for each condition. […] After 10 min, the TMB reaction was stopped using 2 M sulfuric acid, and the plate was measured for absorbance at 450 nm using a Tecan M200 Infinite plate reader. Data were analyzed using GraphPad Prism.

Assay [4] deals with MDA-MB 468 cells. In words: Cytolysis assay, xCELLigence Real-Time Cell Analysis (RTCA). The format is cell-based. The settings on record: 96 hours. The procedure: FIGS. 9A-9B show in vitro cytolytic activity of the SrtA-generated ADC. […] The xCELLigence Real-Time Cell Analysis (RTCA) system was used to monitor cytolysis for each cell line. […] After 96 hours, cell viability was measured.
Cytolysis Assay. Cytolysis assays were performed using the xCELLigence Real-Time Cell Analyzer (RTCA) system (ACEA Biosciences), which measures the electrical impedance, or cell index, from adherent cells to quantify cell proliferation. Both MDA-MB 468 and A431 cell lines, which overexpress epidermal growth factor receptor (EGFR), were assayed. All cell lines were cultured in DMEM supplemented with 10% FBS and 5% penicillin-streptomycin. First, a 96-well Electronic Microtiter Plate (ACEA Biosciences) was scanned with media only to get a background reading using the xCELLigence RTCA instrument. Cells were then seeded at a density of 5000 cells per well and left at room temperature for 30 min to allow the cells to settle before placing the plate back into the instrument. […] This value was determined by calculating the amount of cell killing (difference between the cell indexes of treated and untreated cells) and then dividing by the cell index of untreated cells (no cytolysis). The data was analyzed using GraphPad Prism to calculate the EC50, or the drug concentration that yields a half-maximal cytolytic response.

Regarding “Cetuximab-Ahx-vcTAMRA: Cetuximab conjugated with TAMRAvc-Ahx-LPETG via 1M SrtA-pZ isopeptide ligation”, the “staining of fixed cells under fluorescence” value in assay [1] is on record as “positive staining on the cell surface”.

Turning to “Cetuximab-Ahx-vcMMAE: Cetuximab conjugated with MMAEvc-Ahx-LPETG via 1M SrtA-pZ isopeptide ligation; site-specific ADC”, the “binding affinities (KD) to MDA-MB 468 cells” value in assay [2] is “very similar”. Also, in assay [3], the FcγRI binding result is “comparable”.

Consider “Cetuximab: human IgG1 antibody that targets the epidermal growth factor receptor (EGFR) [reference compound]”, for which the “binding affinities (KD) to MDA-MB 468 cells” value in assay [2] is on record as “very similar”. The FcγRI binding entry in assay [3] is on record as “comparable”. In assay [4], the “cytolytic activity (killing of cells)” value is given as “little to no killing”.

For the origin of these results see US20240229000A1, “METHODS AND COMPOSITIONS THEREOF FOR SITE-[…] LABELING OF HUMAN IgG BY PROXIMITY-BASED SORTASE-MEDIATED LIGATION” (THE TRUSTEES OF THE UNIVERSITY OF PENNSYLVANIA, priority 2021, published 2024).
